Source: PMC5914168 (ChemMedChem, 2017)

Tests used:
[1] = molecular target: T1, N-terminal Nano Luciferase/GAK fusion (NL-GAK) in HEK293 cells (Homo sapiens, UniProt O14976); assay: GAK nanoBRET cellular target engagement assay; settings: relative to 49
T1 sequence (O14976 1-1311): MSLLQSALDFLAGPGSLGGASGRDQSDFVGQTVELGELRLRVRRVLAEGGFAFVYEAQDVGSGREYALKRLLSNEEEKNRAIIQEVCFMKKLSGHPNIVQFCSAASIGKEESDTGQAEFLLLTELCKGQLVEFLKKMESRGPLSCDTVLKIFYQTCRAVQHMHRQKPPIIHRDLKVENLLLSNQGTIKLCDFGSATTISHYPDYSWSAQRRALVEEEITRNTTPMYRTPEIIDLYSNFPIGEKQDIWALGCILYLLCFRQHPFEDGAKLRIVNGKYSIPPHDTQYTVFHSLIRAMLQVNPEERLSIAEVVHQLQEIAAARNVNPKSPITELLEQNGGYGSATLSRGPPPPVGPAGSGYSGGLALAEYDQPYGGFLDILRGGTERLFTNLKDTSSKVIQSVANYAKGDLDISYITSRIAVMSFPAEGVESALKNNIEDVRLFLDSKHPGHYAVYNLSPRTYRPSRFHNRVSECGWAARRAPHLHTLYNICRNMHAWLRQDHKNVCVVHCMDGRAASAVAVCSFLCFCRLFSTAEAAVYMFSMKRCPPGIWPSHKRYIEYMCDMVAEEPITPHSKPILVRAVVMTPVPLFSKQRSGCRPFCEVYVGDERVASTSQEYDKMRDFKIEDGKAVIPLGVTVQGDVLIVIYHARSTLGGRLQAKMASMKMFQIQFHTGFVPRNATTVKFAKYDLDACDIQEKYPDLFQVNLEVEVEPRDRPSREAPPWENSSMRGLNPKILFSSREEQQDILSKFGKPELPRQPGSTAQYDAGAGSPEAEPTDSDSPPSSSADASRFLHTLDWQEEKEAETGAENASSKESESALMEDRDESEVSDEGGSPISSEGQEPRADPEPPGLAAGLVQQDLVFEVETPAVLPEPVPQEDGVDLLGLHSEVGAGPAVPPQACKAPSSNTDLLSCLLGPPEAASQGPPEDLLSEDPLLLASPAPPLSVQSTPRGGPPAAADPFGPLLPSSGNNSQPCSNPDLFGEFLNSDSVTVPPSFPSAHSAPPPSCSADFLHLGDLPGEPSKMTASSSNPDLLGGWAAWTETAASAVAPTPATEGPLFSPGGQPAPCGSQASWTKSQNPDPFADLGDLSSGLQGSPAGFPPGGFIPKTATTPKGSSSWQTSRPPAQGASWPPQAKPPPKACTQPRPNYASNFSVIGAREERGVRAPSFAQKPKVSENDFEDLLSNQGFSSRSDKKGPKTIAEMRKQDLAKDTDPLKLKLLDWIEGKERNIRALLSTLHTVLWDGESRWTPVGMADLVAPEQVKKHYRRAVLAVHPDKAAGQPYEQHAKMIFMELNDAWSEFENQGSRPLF

[2] = molecular target: T2, GAK kinase domain (12-347) (Homo sapiens, UniProt O14976); assay: TR-FRET ligand binding displacement assay, GAK
T2 sequence (O14976 12-347): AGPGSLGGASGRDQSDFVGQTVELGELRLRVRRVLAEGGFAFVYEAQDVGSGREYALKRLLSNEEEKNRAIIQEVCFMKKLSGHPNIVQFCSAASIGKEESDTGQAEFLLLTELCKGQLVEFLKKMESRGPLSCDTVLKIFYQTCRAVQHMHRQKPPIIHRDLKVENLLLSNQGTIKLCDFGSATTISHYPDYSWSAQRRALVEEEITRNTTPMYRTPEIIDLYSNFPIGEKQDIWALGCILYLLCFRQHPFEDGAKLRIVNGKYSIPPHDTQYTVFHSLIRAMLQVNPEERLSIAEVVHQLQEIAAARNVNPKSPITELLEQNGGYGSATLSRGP

## 6,7-Dimethoxy-N-(3,4,5-trimethoxyphenyl)quinolin-4-amine [Compound 57]
[1]
  fold drop in cellular GAK potency: 13 fold
[2]
  NAK selectivity (ratio of GAK Ki and Ki of nearest NAK family member): 5300
